Assay results: patent US20060177446A1

Amino acid sequences for entries named in this document (tags omitted). Residues count along the entry.
UniProt P13726, 33-295 limits assumed: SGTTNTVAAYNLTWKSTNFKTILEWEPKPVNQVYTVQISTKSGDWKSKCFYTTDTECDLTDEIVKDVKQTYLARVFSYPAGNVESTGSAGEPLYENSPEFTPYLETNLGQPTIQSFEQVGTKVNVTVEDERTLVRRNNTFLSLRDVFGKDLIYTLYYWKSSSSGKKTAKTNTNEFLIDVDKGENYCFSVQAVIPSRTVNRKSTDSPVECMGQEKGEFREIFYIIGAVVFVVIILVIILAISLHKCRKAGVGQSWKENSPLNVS
UniProt P13726, 33-251 limits assumed: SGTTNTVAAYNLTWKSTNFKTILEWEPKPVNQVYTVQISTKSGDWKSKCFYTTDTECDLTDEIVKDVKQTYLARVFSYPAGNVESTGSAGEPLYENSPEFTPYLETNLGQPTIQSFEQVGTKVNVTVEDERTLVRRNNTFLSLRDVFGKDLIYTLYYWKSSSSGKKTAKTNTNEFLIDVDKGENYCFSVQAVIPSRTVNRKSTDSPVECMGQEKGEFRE

Tests used:
[1] = biological target: human TF (Innovin®) (human) (UniProt P13726); assay: cell-based or functional assay
tissue factor (TF) = tissue factor (TF) (UniProt P13726); assay: calculated from the earlier TF/D3H44-Fab crystal structure

prolongation of the prothrombin time in citrated human plasma [1] | shape complementarity (sc) (tissue factor (TF)) | solvent accessible surface area lost by D3H44-Fab VH (tissue factor (TF)) | solvent accessible surface area lost by the D3H44-Fab light chain (tissue factor (TF)) | Substance
3 to 7 fold | – | – | – | D3H44 (antibody)
– | 0.71 | 700 Å^2 | 280 Å^2 | D3H44-Fab
